Only a part is listed here, and it is no random draw. The source made the active and inactive calls. No stated cut-off is given here; in the data, active means inhibition above about 37%; inactive means the rest.

Chains of the proteins cited; added tags and fusions are not shown.
UniProt P63165, whole entry: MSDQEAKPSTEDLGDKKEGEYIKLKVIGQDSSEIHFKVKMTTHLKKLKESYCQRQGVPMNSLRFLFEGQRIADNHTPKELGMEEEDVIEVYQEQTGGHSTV

For the experiment, the target named is Small ubiquitin-related modifier 1 (Homo sapiens) (UniProt P63165). Kind of experiment: SUMO1 binding to interaction partners, disruption – biochemical, uHTS, primary screen (AID 602429). The following applies: SUMO1 binding to a labelled peptide, TR-FRET, 1 h; at 20 µM; hits give high values. For orientation: Time-resolved FRET reads energy transfer from a long-lived donor to a nearby acceptor.
By inhibition is commonly meant the relative decrease from the control value, in per cent. Consider `CCN(CC)CCCOC(=O)C(O)(c1ccccc1)C1CCCCC1` (stereo not given), for which the inhibition was inactive: 3.02%.

Turning to `CP(=O)(Nc1ccccc1)Oc1ccc(F)cc1` (stereo not given), the inhibition was inactive: -0.749%.

As for `O=[N+]([O-])c1cc([N+](=O)[O-])c(OC2CCCCC2O)c([N+](=O)[O-])c1` (stereo not given), the inhibition was inactive: -20.3%. To `CCCCCOc1ccc(NP(C)(=O)Oc2ccc(Cl)cc2Cl)cc1` (stereo not given) belongs inactive: 5.68%; to `O=C(O)c1cccc(Nc2c([N+](=O)[O-])cc([N+](=O)[O-])cc2[N+](=O)[O-])c1`, inactive: -24.6%; to `CC1=NCCc2c1[nH]c1ccccc21.O=[N+]([O-])c1cc([N+](=O)[O-])c(O)c([N+](=O)[O-])c1`, inactive: -20.6%. To `COc1ccccc1OP(C)(=O)Nc1cccc(Br)c1` (stereo not given) belongs inactive: 2.48%. To `CCOC(=O)c1ccc(NP(C)(=O)Oc2cc(C)cc(C)c2)cc1` (stereo not given) belongs inactive: 2.08%. With `Cc1cc(C)cc(OP(C)(=O)Nc2ccc(C)cc2C)c1` (stereo not given), the inhibition is inactive: -1.73%. To `Cc1ccc(C)c(NP(C)(=O)Oc2ccccc2)c1` (stereo not given) belongs inactive: -3.67%. On to `Cc1cc(C)cc(OP(C)(=O)Nc2ccccn2)c1` (stereo not given), for which the inhibition is inactive: -1.23%. To `CP(=O)(Nc1cccc(Br)c1)Oc1ccccc1` (stereo not given) belongs inactive: 32.8%; to `O=[N+]([O-])c1cc([N+](=O)[O-])c(-n2nnc3ccccc32)c([N+](=O)[O-])c1`, inactive: -21.8%.

For `CN(Cc1cccnc1)C(=O)COc1ccc(Cl)c(Cl)c1.O=[N+]([O-])c1cc([N+](=O)[O-])c(O)c([N+](=O)[O-])c1`, the inhibition is inactive: -17.9%. As to `O=[N+]([O-])c1cc([N+](=O)[O-])c(-c2cnn(-c3ccccc3)c2)c([N+](=O)[O-])c1`, the inhibition was inactive: -29.1%.

Consider `Cc1nc2ccc3ccccc3c2s1.O=[N+]([O-])c1cc([N+](=O)[O-])c(O)c([N+](=O)[O-])c1`, for which the inhibition was inactive: -20.4%.

Turning to `CC1=C2N=C(C=C3N=C(C(C)=C4[N-][C@@](C)([C@@H]5N=C1[C@](C)(CCC(=O)NC[C@@H](C)OP(=O)([O-])O[C@H]1[C@@H](O)[C@@H](n6cnc7cc(C)c(C)cc76)O[C@@H]1CO)[C@H]5CC(N)=O)[C@@](C)(CC(N)=O)[C@@H]4CCC(N)=O)[C@@](C)(CC(N)=O)[C@@H]3CCC(N)=O)C(C)(C)[C@@H]2CCC(N)=O.[C-]#N.[Co+3]`, the inhibition is inactive: 3.55%. To `O=[N+]([O-])c1cc([N+](=O)[O-])c(Nc2nnnn2CCO)c([N+](=O)[O-])c1` belongs inactive: -35.3%.

With `CCOC(=O)C(CC)C1=NC(C)(C)Cc2ccccc21.O=[N+]([O-])c1cc([N+](=O)[O-])c(O)c([N+](=O)[O-])c1` (stereo not given), the inhibition was inactive: -26.2%. To `COc1ccccc1OP(C)(=O)Nc1c(C)cccc1C` (stereo not given) belongs inactive: -1.84%; to `CN1CCCCC1COC(=O)C1(O)c2ccccc2CCc2ccccc21` (stereo not given), inactive: -0.899%; to `COc1ccc(-c2ccccn2)cc1.O=[N+]([O-])c1cc([N+](=O)[O-])c(O)c([N+](=O)[O-])c1`, inactive: -13.4%. To `CCCOc1ccc(NP(C)(=O)Oc2ccc(Cl)cc2)cc1` (stereo not given) belongs inactive: 1.74%; to `CP(=O)(Nc1ccc(SC(F)(F)F)cc1)Oc1ccccc1` (stereo not given), inactive: 2.22%. As for `CP(=S)(Nn1cnnc1)Oc1ccccc1` (stereo not given), the inhibition was inactive: -0.914%. To `CP(=O)(Nc1ccccc1Br)Oc1ccccc1` (stereo not given) belongs inactive: 2.31%.

Consider `COc1ccccc1OP(C)(=O)Nc1ccccc1` (stereo not given), for which the inhibition is inactive: -14.8%. Take `Cc1ccc(Nc2c([N+](=O)[O-])cc([N+](=O)[O-])cc2[N+](=O)[O-])cc1`: the inhibition is inactive: -27.4%. To `Cc1cccc(C)c1OP(C)(=O)Nc1ccc(SC(F)(F)F)cc1` (stereo not given) belongs inactive: -0.542%; to `CP(=O)(Nc1ccc(SC(F)(F)F)cc1)Oc1ccc(Cl)cc1` (stereo not given), inactive: 8.82%. To `CP(=O)(Oc1ccccc1)OC(c1ccccc1)C(F)(F)F` (stereo not given) belongs inactive: -1.77%; to `CP(=O)(NC(=O)Nc1ccccc1)Oc1ccccc1` (stereo not given), inactive: -2.42%.

On to `CCc1ccc(OP(C)(=O)N2CCN(c3ccc([N+](=O)[O-])cc3)CC2)cc1` (stereo not given), for which the inhibition was inactive: -28.9%.

`Cc1cc(C)cc(OP(C)(=O)Nc2ccc(SC(F)(F)F)cc2)c1` (stereo not given): the inhibition was inactive: -2.6%. Consider `CCOC(=O)c1ccc(NP(C)(=O)Oc2ccc(OC)cc2)cc1` (stereo not given), for which the inhibition was inactive: 1.71%. With `O=[N+]([O-])c1cc([N+](=O)[O-])c(O)c([N+](=O)[O-])c1.c1ccc(Oc2ccncc2)cc1`, the inhibition is inactive: -26.7%. To `CCOP(C)(=S)SCC(=O)NC(C)C(=O)O` (stereo not given) belongs inactive: 1.36%; to `CP(=O)(Nc1ccccn1)Oc1ccc(Cl)cc1` (stereo not given), inactive: 1.26%. `CCN(CC)CCCOC(=O)C(O)(c1ccccc1)c1ccccc1`: the inhibition is inactive: 1.14%. Turning to `COc1ccccc1-c1ccccn1.O=[N+]([O-])c1cc([N+](=O)[O-])c(O)c([N+](=O)[O-])c1`, the inhibition is inactive: -20.2%.

For the molecule `O=[N+]([O-])c1cc([N+](=O)[O-])c(Nc2cccnc2)c([N+](=O)[O-])c1`, the inhibition is inactive: -37.2%. To `O=[N+]([O-])c1ccc2c(c1)C=Nc1ccccc1O2` belongs inactive: -21.9%; to `CC(C)(C)c1ccc(OP(C)(=O)Nc2ccc(SC(F)(F)F)cc2)cc1` (stereo not given), inactive: 0.458%.

Turning to `Cc1cccc(C)c1OP(C)(N)=O` (stereo not given), the inhibition is inactive: -2.76%. To `COc1ccccc1OP(C)(=O)Nc1ccc(C)cc1` (stereo not given) belongs inactive: -2.59%; to `Cc1ccc(NP(C)(=O)Oc2ccccc2)c(C)c1` (stereo not given), inactive: -0.763%. With `CCOC(=O)c1ccc(NP(C)(=O)Oc2ccccc2)cc1` (stereo not given), the inhibition is inactive: -0.519%. With `Cc1cc(C)cc(OP(C)(N)=O)c1` (stereo not given), the inhibition was inactive: -1.45%. With `COc1ccccc1OP(C)(=O)Nc1cc(Cl)ccc1C` (stereo not given), the inhibition was inactive: -1.57%. On to `COc1ccc(OP(C)(=O)Nc2cccc(F)c2)cc1` (stereo not given), for which the inhibition is inactive: -0.598%.

The record behind these values is PubChem BioAssay AID602429 (Sanford-Burnham Center for Chemical Genomics, 2012).
